The values below come from patent US20260384450A1, “MACROCYCLIC AMINOPYRIDINE COMPOUNDS AS EGFR INHIBITORS” (published 2026).

The chains behind the UniProt entries cited, without tags or fusion partners. Where a name states a change or a piece, a line headed by the entry shows the natural chain unless it says otherwise. A line that says so, or that is headed by a name, gives the form on record, which may keep a tag or linker. Residues count along the entry.
UniProt P00533, 25-1210 limits assumed: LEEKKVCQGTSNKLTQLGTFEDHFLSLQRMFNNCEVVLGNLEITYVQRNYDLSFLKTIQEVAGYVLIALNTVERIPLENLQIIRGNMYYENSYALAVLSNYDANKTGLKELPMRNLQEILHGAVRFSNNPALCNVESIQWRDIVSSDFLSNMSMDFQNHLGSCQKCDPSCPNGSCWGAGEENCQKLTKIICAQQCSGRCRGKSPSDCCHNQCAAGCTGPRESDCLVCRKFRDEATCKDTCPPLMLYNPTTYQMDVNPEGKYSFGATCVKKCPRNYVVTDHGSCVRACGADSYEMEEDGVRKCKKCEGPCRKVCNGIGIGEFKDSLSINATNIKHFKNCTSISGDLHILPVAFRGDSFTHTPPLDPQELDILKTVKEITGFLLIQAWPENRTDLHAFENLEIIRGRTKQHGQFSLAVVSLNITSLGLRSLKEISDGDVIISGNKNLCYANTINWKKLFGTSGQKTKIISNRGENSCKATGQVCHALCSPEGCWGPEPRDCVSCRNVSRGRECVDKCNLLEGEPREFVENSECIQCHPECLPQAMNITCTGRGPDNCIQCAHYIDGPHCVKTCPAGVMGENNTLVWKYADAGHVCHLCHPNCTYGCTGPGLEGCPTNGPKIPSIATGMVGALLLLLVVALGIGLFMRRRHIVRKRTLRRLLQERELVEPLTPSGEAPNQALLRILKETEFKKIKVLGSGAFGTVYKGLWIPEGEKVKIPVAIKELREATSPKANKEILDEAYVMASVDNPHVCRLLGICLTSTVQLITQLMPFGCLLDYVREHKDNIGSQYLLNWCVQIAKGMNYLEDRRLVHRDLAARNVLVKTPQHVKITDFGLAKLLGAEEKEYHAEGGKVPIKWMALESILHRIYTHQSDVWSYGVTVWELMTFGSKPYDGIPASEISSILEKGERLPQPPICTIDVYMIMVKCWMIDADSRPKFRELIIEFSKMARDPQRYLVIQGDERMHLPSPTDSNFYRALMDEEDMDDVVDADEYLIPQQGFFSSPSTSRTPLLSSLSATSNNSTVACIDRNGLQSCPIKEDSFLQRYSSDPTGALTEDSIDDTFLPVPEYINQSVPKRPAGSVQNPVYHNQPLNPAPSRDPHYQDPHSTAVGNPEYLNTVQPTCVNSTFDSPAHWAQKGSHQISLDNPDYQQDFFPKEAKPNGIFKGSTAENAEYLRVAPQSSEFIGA
UniProt P00533, 25-1210 C797S/L858R limits assumed: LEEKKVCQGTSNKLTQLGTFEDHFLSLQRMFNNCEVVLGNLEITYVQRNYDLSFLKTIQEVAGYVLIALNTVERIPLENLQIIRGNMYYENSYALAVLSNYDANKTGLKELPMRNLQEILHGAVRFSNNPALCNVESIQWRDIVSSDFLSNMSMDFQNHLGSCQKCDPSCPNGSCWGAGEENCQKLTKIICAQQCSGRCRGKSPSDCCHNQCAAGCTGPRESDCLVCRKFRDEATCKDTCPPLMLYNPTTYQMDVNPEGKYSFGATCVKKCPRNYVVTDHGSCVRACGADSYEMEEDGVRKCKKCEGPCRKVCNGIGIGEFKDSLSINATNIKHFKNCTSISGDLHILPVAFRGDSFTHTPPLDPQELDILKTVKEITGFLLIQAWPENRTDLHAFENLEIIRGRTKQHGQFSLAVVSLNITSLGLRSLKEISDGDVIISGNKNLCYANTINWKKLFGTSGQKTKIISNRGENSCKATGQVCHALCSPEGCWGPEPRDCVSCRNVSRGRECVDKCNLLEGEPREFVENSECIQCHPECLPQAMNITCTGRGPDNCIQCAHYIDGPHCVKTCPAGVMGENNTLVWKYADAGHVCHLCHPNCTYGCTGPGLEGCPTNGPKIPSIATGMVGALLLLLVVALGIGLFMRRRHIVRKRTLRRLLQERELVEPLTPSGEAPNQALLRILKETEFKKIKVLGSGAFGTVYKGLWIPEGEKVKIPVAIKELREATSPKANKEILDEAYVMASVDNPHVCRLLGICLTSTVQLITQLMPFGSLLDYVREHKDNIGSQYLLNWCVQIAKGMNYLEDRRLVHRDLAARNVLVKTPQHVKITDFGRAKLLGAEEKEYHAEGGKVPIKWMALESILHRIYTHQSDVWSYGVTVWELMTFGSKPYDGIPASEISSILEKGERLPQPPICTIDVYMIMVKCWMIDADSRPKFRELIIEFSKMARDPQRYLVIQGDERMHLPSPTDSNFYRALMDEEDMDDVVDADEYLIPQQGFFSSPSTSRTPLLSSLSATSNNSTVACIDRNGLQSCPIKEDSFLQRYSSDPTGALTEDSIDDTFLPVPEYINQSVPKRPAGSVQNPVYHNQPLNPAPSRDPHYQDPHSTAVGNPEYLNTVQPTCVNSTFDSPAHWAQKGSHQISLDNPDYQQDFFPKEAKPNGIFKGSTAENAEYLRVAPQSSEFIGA
UniProt P00533, 25-1210 T790M/C797S/L858R limits assumed: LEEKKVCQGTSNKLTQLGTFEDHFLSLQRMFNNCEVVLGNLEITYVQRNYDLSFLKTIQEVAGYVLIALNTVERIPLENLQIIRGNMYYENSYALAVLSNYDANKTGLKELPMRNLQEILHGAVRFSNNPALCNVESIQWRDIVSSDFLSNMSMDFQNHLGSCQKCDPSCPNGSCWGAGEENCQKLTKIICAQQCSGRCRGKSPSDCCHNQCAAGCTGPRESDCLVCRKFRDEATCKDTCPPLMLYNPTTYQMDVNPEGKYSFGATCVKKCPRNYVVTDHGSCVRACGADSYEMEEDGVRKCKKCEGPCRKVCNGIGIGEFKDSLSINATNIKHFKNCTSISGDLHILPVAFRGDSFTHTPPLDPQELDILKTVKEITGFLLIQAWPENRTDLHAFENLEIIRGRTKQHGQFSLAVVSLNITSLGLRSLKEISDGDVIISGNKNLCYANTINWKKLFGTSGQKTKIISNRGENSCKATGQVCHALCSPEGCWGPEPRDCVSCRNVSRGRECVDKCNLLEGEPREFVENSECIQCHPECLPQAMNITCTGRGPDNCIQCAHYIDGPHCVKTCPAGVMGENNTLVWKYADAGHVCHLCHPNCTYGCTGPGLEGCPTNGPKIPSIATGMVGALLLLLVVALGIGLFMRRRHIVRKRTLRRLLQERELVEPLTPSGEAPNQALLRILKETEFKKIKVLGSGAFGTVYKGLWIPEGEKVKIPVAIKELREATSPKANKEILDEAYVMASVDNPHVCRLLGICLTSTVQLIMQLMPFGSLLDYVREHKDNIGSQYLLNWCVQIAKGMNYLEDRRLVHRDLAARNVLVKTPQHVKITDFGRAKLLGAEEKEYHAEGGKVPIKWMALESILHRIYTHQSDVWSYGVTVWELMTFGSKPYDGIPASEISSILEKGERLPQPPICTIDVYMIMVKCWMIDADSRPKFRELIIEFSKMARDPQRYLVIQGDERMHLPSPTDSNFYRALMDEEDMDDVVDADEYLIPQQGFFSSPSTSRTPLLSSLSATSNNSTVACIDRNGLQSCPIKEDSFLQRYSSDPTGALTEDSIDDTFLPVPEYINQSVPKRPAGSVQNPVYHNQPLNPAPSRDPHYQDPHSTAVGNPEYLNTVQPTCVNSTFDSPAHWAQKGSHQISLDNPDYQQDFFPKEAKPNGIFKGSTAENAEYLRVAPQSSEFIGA
UniProt P00533, with tags, fused parts or gaps DEL746-750/C797S limits assumed: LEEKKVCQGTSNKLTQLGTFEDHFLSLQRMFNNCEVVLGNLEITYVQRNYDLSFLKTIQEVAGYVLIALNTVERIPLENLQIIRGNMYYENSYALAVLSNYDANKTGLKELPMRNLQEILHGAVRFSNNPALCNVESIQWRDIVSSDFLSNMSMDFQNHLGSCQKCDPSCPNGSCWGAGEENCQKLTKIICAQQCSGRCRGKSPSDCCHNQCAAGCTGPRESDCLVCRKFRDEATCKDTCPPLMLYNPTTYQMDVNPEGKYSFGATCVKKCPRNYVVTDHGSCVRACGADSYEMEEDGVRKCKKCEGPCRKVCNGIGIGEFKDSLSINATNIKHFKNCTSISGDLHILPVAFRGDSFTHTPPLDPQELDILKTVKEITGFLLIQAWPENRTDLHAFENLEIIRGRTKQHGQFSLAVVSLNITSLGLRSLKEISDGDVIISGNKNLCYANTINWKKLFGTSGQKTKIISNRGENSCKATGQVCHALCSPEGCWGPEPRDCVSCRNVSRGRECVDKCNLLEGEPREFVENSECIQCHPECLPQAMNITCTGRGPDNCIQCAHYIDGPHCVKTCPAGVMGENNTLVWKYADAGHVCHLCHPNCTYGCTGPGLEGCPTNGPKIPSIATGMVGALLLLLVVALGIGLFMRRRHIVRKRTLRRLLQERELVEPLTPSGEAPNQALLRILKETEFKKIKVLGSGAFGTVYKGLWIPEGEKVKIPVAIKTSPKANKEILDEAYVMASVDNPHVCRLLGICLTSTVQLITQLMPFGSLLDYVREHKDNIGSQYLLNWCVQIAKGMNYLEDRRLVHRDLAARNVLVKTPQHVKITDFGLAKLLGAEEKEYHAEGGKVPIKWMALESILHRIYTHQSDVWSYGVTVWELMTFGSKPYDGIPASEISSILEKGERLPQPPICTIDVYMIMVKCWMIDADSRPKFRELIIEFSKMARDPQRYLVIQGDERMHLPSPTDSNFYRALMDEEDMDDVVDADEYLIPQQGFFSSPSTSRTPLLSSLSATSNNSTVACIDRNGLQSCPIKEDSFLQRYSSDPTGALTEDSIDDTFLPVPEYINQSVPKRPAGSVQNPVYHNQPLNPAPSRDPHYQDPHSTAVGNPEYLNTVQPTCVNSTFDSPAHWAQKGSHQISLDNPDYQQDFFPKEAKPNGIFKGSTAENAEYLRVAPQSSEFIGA
UniProt P00533, with tags, fused parts or gaps DEL746-750/T790M/C797S limits assumed: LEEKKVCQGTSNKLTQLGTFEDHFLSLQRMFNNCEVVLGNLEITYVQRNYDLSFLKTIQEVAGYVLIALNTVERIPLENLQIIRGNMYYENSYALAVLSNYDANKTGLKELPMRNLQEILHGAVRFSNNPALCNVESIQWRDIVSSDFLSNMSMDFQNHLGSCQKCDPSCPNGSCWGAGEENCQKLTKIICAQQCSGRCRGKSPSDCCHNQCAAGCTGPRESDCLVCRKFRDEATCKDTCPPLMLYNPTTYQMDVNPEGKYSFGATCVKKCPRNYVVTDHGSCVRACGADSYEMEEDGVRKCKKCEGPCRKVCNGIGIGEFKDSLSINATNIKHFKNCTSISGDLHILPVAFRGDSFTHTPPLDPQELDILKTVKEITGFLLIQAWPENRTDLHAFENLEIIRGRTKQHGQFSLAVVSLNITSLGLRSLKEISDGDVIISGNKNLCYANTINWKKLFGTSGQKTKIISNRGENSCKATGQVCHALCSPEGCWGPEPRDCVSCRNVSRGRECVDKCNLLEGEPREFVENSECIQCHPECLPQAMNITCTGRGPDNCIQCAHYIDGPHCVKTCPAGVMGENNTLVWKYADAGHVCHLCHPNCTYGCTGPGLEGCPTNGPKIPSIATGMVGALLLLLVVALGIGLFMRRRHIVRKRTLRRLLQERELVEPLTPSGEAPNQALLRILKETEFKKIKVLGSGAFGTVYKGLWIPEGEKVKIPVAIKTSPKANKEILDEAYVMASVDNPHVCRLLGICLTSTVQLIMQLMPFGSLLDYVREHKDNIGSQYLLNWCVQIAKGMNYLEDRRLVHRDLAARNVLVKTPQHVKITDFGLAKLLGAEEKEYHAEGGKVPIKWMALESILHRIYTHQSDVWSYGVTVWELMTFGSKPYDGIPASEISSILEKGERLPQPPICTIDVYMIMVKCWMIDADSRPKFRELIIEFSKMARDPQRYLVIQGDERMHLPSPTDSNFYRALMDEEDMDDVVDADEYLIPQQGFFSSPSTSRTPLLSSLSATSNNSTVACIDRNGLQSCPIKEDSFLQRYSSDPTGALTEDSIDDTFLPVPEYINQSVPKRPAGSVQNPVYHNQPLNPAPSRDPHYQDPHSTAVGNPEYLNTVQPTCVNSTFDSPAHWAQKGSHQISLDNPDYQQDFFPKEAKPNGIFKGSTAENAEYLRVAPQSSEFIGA

Read-outs that look alike come from different tables or passages of the source.

The target in test [1] is EGFR D19TMCS (del19/T790M/C797S) (Homo sapiens, UniProt P00533, C797S/DEL746-750/T790M). The test is described as follows: Biochemical EGFR kinase assay (Lance Ultra TR-FRET), triple mutant del19/T790M/C797S.
For test [2], the target named is EGFR LRTMCS (L858R/T790M/C797S) (Homo sapiens, UniProt P00533, C797S/L858R/T790M). The test is described as follows: Biochemical EGFR kinase assay (Lance Ultra TR-FRET), triple mutant L858R/T790M/C797S.
The next test deals with EGFR D19CS (del19/C797S) (Homo sapiens, UniProt P00533, C797S/DEL746-750). As to the kind of experiment: Biochemical EGFR kinase assay (Lance Ultra TR-FRET), double mutant del19/C797S.
The target of another test is EGFR LRCS (L858R/C797S) (Homo sapiens, UniProt P00533, C797S/L858R). The test is described as follows: Biochemical EGFR kinase assay (Lance Ultra TR-FRET), double mutant L858R/C797S.
In a further test the target is EGFR WT (Homo sapiens, UniProt P00533). The test is described as follows: Biochemical EGFR kinase assay (Lance Ultra TR-FRET), wildtype.
[3] abbreviates: read-out: EGFR D19TMCS IC50, ATP 1 mM.
The mark [4] stands for this setting: read-out: EGFR D19TMCS IC50, ATP Km.
The mark [5] stands for this setting: read-out: EGFR LRTMCS IC50, ATP 1 mM.
[6] abbreviates: read-out: EGFR LRTMCS IC50, ATP Km.
The mark [7] stands for this setting: read-out: EGFR D19CS IC50, ATP 1 mM.
[8] abbreviates: read-out: EGFR D19CS IC50, ATP Km.
Where [9] appears, read: read-out: EGFR LRCS IC50, ATP 1 mM.
Setting [10] is: read-out: EGFR LRCS IC50, ATP Km.
The mark [11] stands for this setting: read-out: EGFR WT IC50, ATP 1 mM.
Where [12] appears, read: read-out: IC50, EGFR D19TMCS, Km, ATP at Km, EGFR del19/T790M/C797S.
Setting [13] is: read-out: IC50, EGFR LRTMCS, 1 mM, ATP 1 mM, EGFR L858R/T790M/C797S.
Where [14] appears, read: read-out: IC50, EGFR LRTMCS, Km, ATP at Km, EGFR L858R/T790M/C797S.
The mark [15] stands for this setting: read-out: IC50, EGFR-D19CS, 1 mM, ATP 1 mM, EGFR del19/C797S.
The mark [16] stands for this setting: read-out: IC50, EGFR-D19CS, Km, ATP at Km, EGFR del19/C797S.
Where [17] appears, read: read-out: IC50, EGFR-LRCS, 1 mM, ATP 1 mM, EGFR L858R/C797S.
Setting [18] is: read-out: IC50, EGFR-LRCS, Km, ATP at Km, EGFR L858R/C797S.
The mark [19] stands for this setting: read-out: IC50, EGFR WT, 1 mM, ATP 1 mM, EGFR wildtype.
The mark [20] stands for this setting: read-out: IC50, EGFR WT, Km, ATP at Km, EGFR wildtype.

Consider `Cc1nn(C)c2c1-c1nccc(n1)Nc1cc(c(-c3ncc(CN4CC(C(C)(C)F)C4)cc3F)cn1)N[C@@H](C)CCO2`, for which the IC50 (in test [1] (setting [3]); in test [1] (setting [4]); in test [2] (setting [5]); in test [2] (setting [6]); on EGFR D19CS (del19/C797S) (setting [7]); on EGFR D19CS (del19/C797S) (setting [8])) was < 10 nM each time. In addition, the IC50 at EGFR LRCS (L858R/C797S) (setting [9]) was 10 to 100 nM; on EGFR LRCS (L858R/C797S) (setting [10]), < 10 nM; at EGFR WT (setting [11]), > 1000 nM; at EGFR WT (read-out: EGFR WT IC50, ATP Km), < 10 nM.

As to `Cc1nn(C)c2c1-c1nccc(n1)Nc1cc(c(-c3ncc(CN4CCC(C5(O)CC5)CC4)cc3F)cn1)N[C@@H](C)CCO2`, the IC50 in test [1] (setting [12]) is < 10 nM; in test [2] (setting [13]), < 10 nM; in test [2] (setting [14]), < 10 nM; at EGFR D19CS (del19/C797S) (setting [15]) it was < 10 nM; on EGFR D19CS (del19/C797S) (setting [16]), < 10 nM; on EGFR LRCS (L858R/C797S) (setting [17]) it was 10 to 100 nM. The IC50 on EGFR LRCS (L858R/C797S) (setting [18]) was < 10 nM; at EGFR WT (setting [19]), > 1000 nM; at EGFR WT (setting [20]) it was < 10 nM.

On to `Cc1nn(C)c2c1-c1nccc(n1)Nc1cc(c(-c3ccc(C(C)(C)F)cn3)cn1)N[C@@H](C)CCO2`, for which the IC50 in test [1] (setting [12]) was < 10 nM; in test [2] (setting [13]), < 10 nM; in test [2] (setting [14]), < 10 nM; on EGFR D19CS (del19/C797S) (setting [15]) it was 10 to 100 nM; at EGFR D19CS (del19/C797S) (setting [16]), < 10 nM; on EGFR LRCS (L858R/C797S) (setting [17]), 10 to 100 nM. Besides, the results for the IC50 on EGFR LRCS (L858R/C797S) (setting [18]), on EGFR WT (setting [19]) and at EGFR WT (setting [20]) were < 10 nM, > 1000 nM and 10 to 100 nM, respectively.

For `C[C@H]1CCOc2c(cnn2CC(F)(F)F)-c2nccc(n2)Nc2cc(c(-c3ccn(C(F)F)n3)cn2)N1`, the half-inhibitory concentration (IC50) is < 10 nM in test [1] (setting [3]); < 10 nM in test [1] (setting [4]); < 10 nM in test [2] (setting [5]); < 10 nM in test [2] (setting [6]); > 1000 nM on EGFR D19CS (del19/C797S) (setting [7]); 100 to 1000 nM at EGFR D19CS (del19/C797S) (setting [8]). For the same molecule, the half-inhibitory concentration (IC50) was > 1000 nM on EGFR LRCS (L858R/C797S) (setting [9]); 100 to 1000 nM at EGFR LRCS (L858R/C797S) (setting [10]); > 1000 nM on EGFR WT (setting [11]); 100 to 1000 nM on EGFR WT (read-out: EGFR WT IC50, ATP Km).

Turning to `C[C@H]1CCOc2c(cnn2C)-c2nccc(n2)Nc2cc(c(-c3ncc(CN4CCC(F)(CO)CC4)cc3F)cn2)N1`, the IC50 (in test [1] (setting [3]); in test [1] (setting [4]); in test [2] (setting [5]); in test [2] (setting [6]); at EGFR D19CS (del19/C797S) (setting [7]); at EGFR D19CS (del19/C797S) (setting [8])) was < 10 nM in each case. Also, the IC50 on EGFR LRCS (L858R/C797S) (setting [9]) is 10 to 100 nM; on EGFR LRCS (L858R/C797S) (setting [10]), < 10 nM; at EGFR WT (setting [11]) it was > 1000 nM; at EGFR WT (read-out: EGFR WT IC50, ATP Km) it was < 10 nM.

For `Cc1nn(C)c2c1-c1nccc(n1)Nc1cc(c(-c3ncc(CN4CC5CS(=O)(=O)CC5C4)cc3F)cn1)N[C@@H](C)CCO2` (some centres unmarked), the IC50 in test [1] (setting [12]) is < 10 nM; in test [2] (setting [13]), < 10 nM; in test [2] (setting [14]) it was < 10 nM; at EGFR D19CS (del19/C797S) (setting [15]) it was 10 to 100 nM; at EGFR D19CS (del19/C797S) (setting [16]), < 10 nM; at EGFR LRCS (L858R/C797S) (setting [17]) it was 10 to 100 nM. In addition, the IC50 at EGFR LRCS (L858R/C797S) (setting [18]) was < 10 nM; on EGFR WT (setting [19]), > 1000 nM; on EGFR WT (setting [20]), < 10 nM.

For `Cc1nn(C)c2c1-c1nccc(n1)Nc1cc(c(-c3ccc(OC4CCN(C)CC4)cn3)cn1)NCC(C)(C)CO2`, the half-inhibitory concentration (IC50) (in test [1] (setting [3]); in test [1] (setting [4]); in test [2] (setting [5]); in test [2] (setting [6]); at EGFR D19CS (del19/C797S) (setting [7]); on EGFR D19CS (del19/C797S) (setting [8])) was < 10 nM each time. For the same molecule, the 50% inhibitory concentration (IC50) at EGFR LRCS (L858R/C797S) (setting [9]) is < 10 nM; at EGFR LRCS (L858R/C797S) (setting [10]), < 10 nM; on EGFR WT (setting [11]), 100 to 1000 nM; at EGFR WT (read-out: EGFR WT IC50, ATP Km) it was < 10 nM.

On to `Cc1nn(C)c2c1-c1nccc(n1)Nc1cc(c(-c3ncc(CN4CC5CS(=O)(=O)CC5C4)cc3F)cn1)NCC[C@H](C)O2` (some centres unmarked), for which the IC50 in test [1] (setting [12]) is 10 to 100 nM; in test [2] (setting [13]) it was < 10 nM; in test [2] (setting [14]), < 10 nM; on EGFR D19CS (del19/C797S) (setting [15]) it was 10 to 100 nM; at EGFR D19CS (del19/C797S) (setting [16]), < 10 nM; at EGFR LRCS (L858R/C797S) (setting [17]) it was 10 to 100 nM. For the same molecule, the IC50 was < 10 nM on EGFR LRCS (L858R/C797S) (setting [18]), > 1000 nM on EGFR WT (setting [19]) and 10 to 100 nM on EGFR WT (setting [20]).

On to `C[C@H]1CCOc2c(cnn2C)-c2nccc(n2)Nc2cc(c(-c3cnc(OC4CCOC4)cn3)cn2)N1` (some centres unmarked), for which the IC50 in test [1] (setting [3]) is < 10 nM; in test [1] (setting [4]), < 10 nM; in test [2] (setting [5]), < 10 nM; in test [2] (setting [6]) it was < 10 nM; at EGFR D19CS (del19/C797S) (setting [7]), 10 to 100 nM; at EGFR D19CS (del19/C797S) (setting [8]), < 10 nM. Further, the IC50 on EGFR LRCS (L858R/C797S) (setting [9]) was 100 to 1000 nM; on EGFR LRCS (L858R/C797S) (setting [10]), < 10 nM; at EGFR WT (setting [11]), > 1000 nM; at EGFR WT (read-out: EGFR WT IC50, ATP Km), 10 to 100 nM.
